## Apparent affinities of Ab-14 variants for a coronavirus HR2 peptide

Reference: Li et al. 2023, doi:10.1038/s41467-023-39022-2. File: FLAb, binding data.

Target: peptide PDVDLGDISGINAS, taken from heptad repeat 2 (HR2) of SARS-CoV-2 spike.

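The starting antibody came from a phage panning campaign against this peptide. This is the validation round: designs drawn from the data on random variants, tested in the same kind of assay. Their group label is 14L_Ctrl (Ctrl: baseline library sampled from a position-specific scoring matrix, with some repeated check sequences). The scFvs were displayed on barcoded MATa yeast, the peptide on MATalpha yeast. Pairs that bind mate more often; barcode pairs of the diploids are counted by sequencing. Read counts were normalised to the haploid input and turned into Kd by a linear fit to BCL2-family pairs of known affinity, for each replicate. The assay was run in six technical replicates.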

Ab-14 is the parent antibody, in scFv form: VH, then a (GGGGS)3 linker, then VL. The heavy chain is unchanged in all variants.
VH: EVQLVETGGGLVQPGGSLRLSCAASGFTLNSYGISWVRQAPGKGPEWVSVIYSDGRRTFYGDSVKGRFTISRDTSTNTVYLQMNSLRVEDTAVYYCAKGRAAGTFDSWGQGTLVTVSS
VL: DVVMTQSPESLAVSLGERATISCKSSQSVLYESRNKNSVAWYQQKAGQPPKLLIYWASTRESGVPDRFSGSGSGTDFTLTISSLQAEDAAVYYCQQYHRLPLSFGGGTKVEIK

Each variant is given by its three light chain CDRs, as the data file delimits them; those of the parent are KSSQSVLYESRNKNSVA, WASTRES, QQYHRLPLS.
Scale: log10 of Kd in nM, estimated from mating counts; low values are strong binders.
An entry "n.d." has no value in the source: the pair was not observed among the diploids in that replicate. This suggests poor binding but is not conclusive.
The authors averaged sequences with at least three values out of six and counted those with two or fewer as poor binders.

CDR-L1	CDR-L2	CDR-L3	log10 Kd (nM) by replicate	control signals
KSSQSVLYESFNKNSVA	DASTREE	QQYHRLPLS	0.53 0.31 0.21 0.64 0.14 0.24	1 of 18 (2.53)
KSSQSVLYESRNENSVA	ALSTRES	QQYHRLPLS	0.30 0.42 0.25 0.26 0.34 0.37	1 of 18 (1.67)
KSSQSVLYESRNKNSVA	MASTRES	QQYSRLPLS	n.d. n.d. n.d. n.d. 0.08 1.06	0 of 18
KSSQSDLYESRNKNSVA	WASTRES	QQYSRLPLS	0.65 0.66 1.03 0.69 1.46 0.56	0 of 18
KISQEVLYESRNKNSVA	DASTRES	QQYHRLPLK	-0.17 -0.47 -0.39 -0.53 -0.37 -0.25	1 of 18 (3.03)
KSSQSVAYESRNKNSVA	WASTRES	QQYHGLPLS	n.d. n.d. n.d. n.d. n.d. n.d.	1 of 18 (1.36)
KLSLSVIYESTNKNSVA	KASTRES	QQYHRLPLS	0.94 1.33 0.21 0.69 1.10 1.13	0 of 18
KTSQSVLYESRNKNSVA	YATTRES	YQYHDLPLS	n.d. n.d. n.d. n.d. n.d. n.d.	1 of 18 (1.61)
KSSQSVLYESRSVNSVA	WASTREV	QQYHRLPLS	1.54 2.07 2.21 n.d. n.d. 1.62	0 of 18
KSSQSVLYEDRNANSVA	EASFRES	QQYHRFPWS	n.d. 1.30 n.d. 1.14 2.01 1.73	0 of 18
KSSISSLTESRTKNSVA	WASTRES	QQYHRLPLS	n.d. n.d. n.d. 1.24 n.d. n.d.	1 of 18 (1.66)
KFSQSVLYESRNKNSVA	WASTRES	QQYSRLPLS	0.27 0.25 0.25 0.03 0.30 0.81	0 of 18
KSSQSQRYESRNKNSVA	GASTRES	QQYHRLPLS	0.66 0.65 0.80 0.59 0.81 0.65	2 of 18 (2.88)
SSSQSVQYESRNKNSVA	SASTRES	QQYHRLPLS	0.87 0.29 0.04 0.83 0.30 0.78	0 of 18
KVSQSVSYESFNKNSVA	WASTRES	QQYHRLPLS	n.d. n.d. n.d. n.d. n.d. 2.80	0 of 18
KSSQSVLYESENKNSVA	WASTVES	QSYHRLPLH	n.d. n.d. n.d. n.d. n.d. n.d.	0 of 18
KSSQSVKYESLNKNSVA	DASTPES	QQYIRLPLS	0.08 -0.27 0.40 0.85 -0.21 0.32	0 of 18
KSDRSVLYESRNKNSVA	WASTRES	QTYHKLPLS	n.d. 2.88 3.82 n.d. 1.83 n.d.	1 of 18 (2.17)
KIAQSVLYESRNKNSVA	DASTRES	QQYHRLPLS	0.52 0.52 0.67 0.30 0.40 0.37	2 of 18 (3.09)
HCSQSVLMESRNKNSVA	WASTRES	QQYHRLPLS	n.d. 1.76 0.31 0.74 0.87 1.20	0 of 18
KSSQSVLYESTNKNSVA	WASTREY	QQYMRLPLS	n.d. 1.15 1.18 2.21 n.d. 2.08	0 of 18
KISQSVEYESVNKNSVA	GASTRES	QQYHRDPLS	2.91 1.38 2.91 3.04 1.54 1.99	0 of 18
KSSQSVWYESRNKNSVA	WASTGES	QQYHRLPLD	n.d. 2.95 n.d. n.d. 2.62 2.43	1 of 18 (2.37)
KSSQSVLYESLNKNSVA	WASTRES	QQYHRNHLS	n.d. n.d. n.d. n.d. n.d. n.d.	2 of 18 (1.61)
KSSQSVLQESRNKNSVA	GASTRCS	QQYVRLPLS	0.38 0.44 0.25 0.29 0.28 0.25	2 of 18 (3.10)
KISQSVLDESRNKNSVA	NASTRES	QQYHRLPLS	0.10 0.23 0.10 -0.06 -0.07 0.28	2 of 18 (2.11)
RFSQRVLYYSRNKNSVA	WASVRES	QQYSDLPLS	1.74 1.35 1.96 1.92 1.53 n.d.	1 of 18 (1.62)
KLSQSVLKESSNANSVA	KASTRER	QQYHRIPFS	1.58 1.73 1.65 1.63 1.48 1.79	3 of 18 (2.87)
KSSQSVLSESRNENSVA	WASTRNR	QQYHRLPLF	1.83 n.d. n.d. 1.31 2.51 2.56	0 of 18
KSSQSVLYELRNANSVA	RASTRES	QQYHRLPLS	2.01 1.36 1.90 2.44 1.75 1.94	1 of 18 (1.90)
KSSQSMLYESRNKNSVA	HASTRES	QQHHRLPLG	n.d. n.d. n.d. n.d. n.d. n.d.	0 of 18
KSCQSVLYDSRNKNSVA	WASTRES	QQYHRLPLS	n.d. 0.80 2.12 2.31 2.47 1.87	0 of 18
KTSQSVLYESRNKNSVA	WASTRES	QQYHELPLS	2.55 2.14 1.44 2.61 1.91 2.68	1 of 18 (2.54)
MSSQSVLYESRNKHSVA	WAETRES	QQYHRQPLS	n.d. n.d. n.d. n.d. n.d. n.d.	1 of 18 (2.34)
KLSQSVLYESRNKNEVA	WASTRES	QQYHRLPDS	n.d. n.d. n.d. n.d. n.d. n.d.	0 of 18
KMSQSVDYESRNKNSVA	YASTRES	QQYHRLPLS	0.29 0.12 0.35 0.20 -0.15 0.40	0 of 18
KSSQSVLYESRNNNSVA	WASHRMS	QQYHRLPLS	1.66 1.69 0.89 1.22 1.83 1.70	2 of 18 (3.05)
KSSQSVLYESRNKNSIA	KASTRES	QQYKRLPLS	n.d. n.d. n.d. n.d. n.d. n.d.	0 of 18

Values of this round are not directly comparable with the first-round values of the same sequences.
The parent sequence was in this pool as ten entries: three were never detected, three once, and four in most replicates, with averages from 0.34 to 2.37.
As a blank, each scFv also met three strains without target: over all light chain designs, 4% of these pairings were detected, typically at 2.64 and seldom below 1.59. For each scFv, signals with the empty controls are counted beside the result, with their mean in brackets.